GIV-Gai inh = inhibitors of GIV peptide binding to Galpha-i3, primary screen, biochemical, fluorescence polarization, FITC-GIV GBA peptide, rat Galphai3 | 90 min; hits give low values; scaled: aluminum fluoride 0%, vehicle 100% | percent of control (FP), % (concentration not given with the values) | 210,000 compounds, 0.42% hits | AID 1224905, 2016;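 active = replicate mean at 85% of control or lower, very high polarization wells dropped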;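 also: wells of about 15 µL received 100 nL stock; the first replicate is given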
HCMV UL50-53 inh = inhibitors of HCMV UL50-UL53 interaction, biochemical, HTRF | HCMV UL50-UL53 nuclear egress complex (human cytomegalovirus) | normalized percent inhibition | inhibition, % (concentration not given with the values) | 0.15% of 190,000 active; in the data active means inhibition above about 27%, passing the limit was not always enough
The depositor's hits bear a star; . = no result; ! = a repeat was not active. Sampled rows, rich in hits. Any-hit rate of the full collection: about 0.46%.

Cc1ccc2c(c1)-c1c(sn(-c3ccc(Cl)c(Cl)c3)c1=S)C(C)(C)N2C
  GIV-Gai inh: 103 | HCMV UL50-53 inh: .

COc1cccc(NC(=O)c2cc3cc4c5c(c3oc2=N)CCCN5CCC4)c1
  GIV-Gai inh: -14* | HCMV UL50-53 inh: -21

COc1cccc(NC(=O)c2cc3ccccc3oc2=O)c1
  GIV-Gai inh: . | HCMV UL50-53 inh: -2

N=c1oc2c(Cl)cc(Cl)cc2cc1C(=O)Nc1ccc(F)cc1
  GIV-Gai inh: 100 | HCMV UL50-53 inh: -8

Cc1ccc(NC(=O)c2cc3cc4c5c(c3oc2=N)CCCN5CCC4)cc1
  GIV-Gai inh: -14* | HCMV UL50-53 inh: -23

CNC(=O)CNC(=O)Nc1ccc(Cl)c(Cl)c1
  GIV-Gai inh: . | HCMV UL50-53 inh: 44*

CS(=O)CCNC(=O)Nc1ccc(Cl)c(Cl)c1 (stereo not given)
  GIV-Gai inh: 107 | HCMV UL50-53 inh: .

CCN(CC)CCCNC(=O)C1CCCN(C(=O)c2nnc(C(=O)Nc3ccc(F)cc3)s2)C1 (stereo not given)
  GIV-Gai inh: 109 | HCMV UL50-53 inh: 4

COc1ccc(NC(=O)CSc2nc3c(cc2C#N)CCCC3)cc1
  GIV-Gai inh: 103 | HCMV UL50-53 inh: .

Cc1cc(C)nc(NS(=O)(=O)c2ccc(NC(=O)CSc3nc4c(cc3C#N)CCCCC4)cc2)n1
  GIV-Gai inh: 102 | HCMV UL50-53 inh: 28*

Next part (5 carried over from the part before).
CNC(=O)CNC(=O)Nc1ccc(Cl)c(Cl)c1
  GIV-Gai inh: . | HCMV UL50-53 inh: 44*

CS(=O)CCNC(=O)Nc1ccc(Cl)c(Cl)c1 (stereo not given)
  GIV-Gai inh: 107 | HCMV UL50-53 inh: .

CCN(CC)CCCNC(=O)C1CCCN(C(=O)c2nnc(C(=O)Nc3ccc(F)cc3)s2)C1 (stereo not given)
  GIV-Gai inh: 109 | HCMV UL50-53 inh: 4

COc1ccc(NC(=O)CSc2nc3c(cc2C#N)CCCC3)cc1
  GIV-Gai inh: 103 | HCMV UL50-53 inh: .

Cc1cc(C)nc(NS(=O)(=O)c2ccc(NC(=O)CSc3nc4c(cc3C#N)CCCCC4)cc2)n1
  GIV-Gai inh: 102 | HCMV UL50-53 inh: 28*

O=C(c1ccc(CSc2nc3ccncc3n2Cc2ccc(F)cc2)cc1)N1CCN(c2ccccc2)CC1
  GIV-Gai inh: 100 | HCMV UL50-53 inh: -16

Cc1cccc(-c2noc(Cc3nc(-c4ccc(F)cc4)cs3)n2)c1
  GIV-Gai inh: 114 | HCMV UL50-53 inh: .

CCc1ccc(S(=O)(=O)c2nnn3c2nc(NC(C)C)c2sccc23)cc1
  GIV-Gai inh: 102 | HCMV UL50-53 inh: .

CC(C)Nc1nc2c(S(=O)(=O)c3ccccc3)nnn2c2ccsc12
  GIV-Gai inh: 101 | HCMV UL50-53 inh: 37*

NC(=S)c1cc2ccc(O)cc2oc1=O
  GIV-Gai inh: 124 | HCMV UL50-53 inh: -107

NC(=S)c1cc2ccccc2oc1=O
  GIV-Gai inh: 6.0* | HCMV UL50-53 inh: .

CC(C)c1cc(C2CCCN2C(=O)c2cc(-c3ccco3)on2)on1 (stereo not given)
  GIV-Gai inh: 102 | HCMV UL50-53 inh: .

COCC(=O)Nc1cc(F)c2nc(N3CCOCC3)ccc2c1
  GIV-Gai inh: 105 | HCMV UL50-53 inh: .

O=C(Nc1ccc2snnc2c1)NC1CC1
  GIV-Gai inh: 104 | HCMV UL50-53 inh: 48*

CNC(=O)Nc1ccc2snnc2c1
  GIV-Gai inh: 102 | HCMV UL50-53 inh: .

Cc1ccc2nc(/C(C#N)=C/c3ccc(-c4cccc(Cl)c4)o3)[nH]c2c1
  GIV-Gai inh: 243 | HCMV UL50-53 inh: -51

N#C/C(=C\c1ccc(-c2ccc(Cl)c(C(=O)O)c2)o1)c1nc2ccccc2[nH]1
  GIV-Gai inh: -58* | HCMV UL50-53 inh: -76

N#C/C(=C/c1ccc(-c2ccc(C(=O)O)cc2)o1)c1ccc(Cl)cc1
  GIV-Gai inh: 113 | HCMV UL50-53 inh: -92

N#C/C(=C\c1ccc(-c2ccc(C(=O)O)cc2)o1)c1nc2ccccc2[nH]1
  GIV-Gai inh: -6.1* | HCMV UL50-53 inh: -26

Cn1c(SCCOc2ccccc2Cl)nnc1-c1ccc2c(c1)OCCCO2
  GIV-Gai inh: 106 | HCMV UL50-53 inh: .

O=C(O)CN1C(=O)/C(=C\c2cc([N+](=O)[O-])cc(Br)c2O)SC1=S
  GIV-Gai inh: -59* | HCMV UL50-53 inh: -78

O=C1/C(=C/c2cc([N+](=O)[O-])cc(Br)c2O)SC(=S)N1c1ccc([N+](=O)[O-])cc1
  GIV-Gai inh: 106 | HCMV UL50-53 inh: -19

O=C1CC(=O)N(/N=C2\C(=O)Nc3ccccc32)C(=S)C1
  GIV-Gai inh: . | HCMV UL50-53 inh: -71

Cc1ccc(/C=C2\SC(=S)N(CC(=O)Nc3c(C)n(C)n(-c4ccccc4)c3=O)C2=O)cc1
  GIV-Gai inh: 102 | HCMV UL50-53 inh: -18

COc1ccc(OCCBr)cc1
  GIV-Gai inh: . | HCMV UL50-53 inh: -16

Cc1[nH]c(-c2ccc(F)cc2)cc1C(=O)N1CC=C(c2ccccc2)CC1
  GIV-Gai inh: 108 | HCMV UL50-53 inh: -6

CN/N=C/c1c(O)ccc2ccccc12
  GIV-Gai inh: . | HCMV UL50-53 inh: 49*

Oc1ccc2ccccc2c1/C=N/c1ncccn1
  GIV-Gai inh: . | HCMV UL50-53 inh: 99*

O=S(=O)(/N=C\c1cc(Br)ccc1O)c1cccs1
  GIV-Gai inh: . | HCMV UL50-53 inh: 3

O=c1oc2ccccc2c(O)c1/C=N/c1ncccn1
  GIV-Gai inh: . | HCMV UL50-53 inh: -18

Oc1ccc2ccccc2c1C=NCc1ccccc1
  GIV-Gai inh: 103 | HCMV UL50-53 inh: 60*

O=S(=O)(/N=C/c1c(O)ccc2ccccc12)c1cccs1
  GIV-Gai inh: . | HCMV UL50-53 inh: 98*

O/N=C/c1c(O)ccc2ccccc12
  GIV-Gai inh: 98 | HCMV UL50-53 inh: -23

O=CN/N=C/c1c(O)ccc2ccccc12
  GIV-Gai inh: . | HCMV UL50-53 inh: -17

Cc1nc(-c2ccc(F)cc2)sc1CCNC(=O)c1ccc(Br)cc1
  GIV-Gai inh: 103 | HCMV UL50-53 inh: -15

O=C(Cn1ncc2ccccc21)Nc1ccc(Br)cc1F
  GIV-Gai inh: 98 | HCMV UL50-53 inh: -16

Cc1ccc(-c2noc(COC(=O)c3ccccc3C(F)(F)F)n2)cc1
  GIV-Gai inh: . | HCMV UL50-53 inh: -21

Cc1nn(Cc2ccc(Cl)cc2)c(C)c1NC(=O)COCc1cc(-c2ccc3c(c2)OCO3)on1
  GIV-Gai inh: 95 | HCMV UL50-53 inh: 6

O=c1[nH]c(SCc2nc(-c3cccc(Br)c3)no2)nc2c(-c3ccccc3)c[nH]c12
  GIV-Gai inh: 102 | HCMV UL50-53 inh: -26

CC(NC(=O)c1ccccc1N=Cc1c(O)ccc2ccccc12)c1ccccc1 (stereo not given)
  GIV-Gai inh: . | HCMV UL50-53 inh: 68*!

CC(C(=O)Nc1cccc(N=Cc2c(O)ccc3ccccc23)c1)c1ccccc1 (stereo not given)
  GIV-Gai inh: . | HCMV UL50-53 inh: -7

CCCCC(=O)N1C2=C(C(=O)c3ccccc32)C(c2cccc([N+](=O)[O-])c2)c2c1n(C)c(=O)n(C)c2=O (stereo not given)
  GIV-Gai inh: 109 | HCMV UL50-53 inh: .

CCOC(=O)CN1CC23C=CC(O2)C(C(=O)N2CCCC2)C3C1=O (stereo not given)
  GIV-Gai inh: 96 | HCMV UL50-53 inh: -8

COc1cc(C=C2C(=O)NC(=O)NC2=O)cc(Cl)c1OCc1ccc(Cl)cc1
  GIV-Gai inh: 87 | HCMV UL50-53 inh: 72*

COc1cc(C=C2C(=O)NC(=O)NC2=O)cc(Cl)c1OCC(=O)O
  GIV-Gai inh: 96 | HCMV UL50-53 inh: 72*

COc1cc(C=C2C(=O)NC(=O)NC2=O)cc(Cl)c1OCCOc1ccccc1C
  GIV-Gai inh: 92 | HCMV UL50-53 inh: 61*

COc1cc(C=C2C(=O)NC(=O)NC2=O)cc(Br)c1OCc1ccccc1Cl
  GIV-Gai inh: 105 | HCMV UL50-53 inh: 7

COc1cc(C=C2C(=O)NC(=O)NC2=O)ccc1OCC(C)C
  GIV-Gai inh: 98 | HCMV UL50-53 inh: -3

COc1cc(C=C2C(=O)NC(=S)NC2=O)cc(Cl)c1OCCOc1ccccc1C
  GIV-Gai inh: 97 | HCMV UL50-53 inh: -16

COc1cc(C=C2C(=O)NC(=S)NC2=O)ccc1OCC(=O)O
  GIV-Gai inh: 99 | HCMV UL50-53 inh: .

COc1cc(C=C2C(=O)NC(=O)NC2=O)cc(Br)c1OCC(C)C
  GIV-Gai inh: 105 | HCMV UL50-53 inh: 87*

Cn1c(SCc2ccccc2)nnc1C1CCCN1CC(=O)N1CCN(c2ccc(F)cc2)CC1 (stereo not given)
  GIV-Gai inh: 102 | HCMV UL50-53 inh: -11

CC(NC(CC(=O)c1ccc(F)cc1)C(=O)O)c1ccccc1 (stereo not given)
  GIV-Gai inh: . | HCMV UL50-53 inh: -2

Cc1nn(-c2ccccc2)c2sc(C(=O)OCC(=O)N3CCCC3)cc12
  GIV-Gai inh: . | HCMV UL50-53 inh: -6

COc1ccccc1OCCOc1c(Cl)cc(C=C2C(=O)NC(=O)NC2=O)cc1OC
  GIV-Gai inh: 106 | HCMV UL50-53 inh: 63*

COc1cc(C=C2C(=O)NC(=O)NC2=O)cc(Cl)c1OCCOc1cccc(C)c1
  GIV-Gai inh: 86 | HCMV UL50-53 inh: 44*

COc1ccccc1OCCOc1c(Br)cc(C=C2C(=O)NC(=O)NC2=O)cc1OC
  GIV-Gai inh: 104 | HCMV UL50-53 inh: -1

COc1ccc(C(=O)Oc2c(Cl)cc(C=C3C(=O)NC(=O)NC3=O)cc2OC)cc1
  GIV-Gai inh: 103 | HCMV UL50-53 inh: 49*

COc1cc(C=C2C(=O)NC(=S)NC2=O)cc(Cl)c1OCCOc1ccccc1
  GIV-Gai inh: 91 | HCMV UL50-53 inh: -13

O=C1NC(=O)C(=Cc2cc(Cl)c(OC(=O)c3ccccc3)c(Cl)c2)C(=O)N1
  GIV-Gai inh: 108 | HCMV UL50-53 inh: 5

Fc1ccccc1CNC1CCCC1
  GIV-Gai inh: 103 | HCMV UL50-53 inh: -23

FC(F)(F)c1ccc(N2CCN(C(c3ccccc3)c3ccccc3)CC2)nc1
  GIV-Gai inh: 102 | HCMV UL50-53 inh: 6

Cc1ccc2nc(Cn3c(=O)c(N4CCOCC4)nc4ccccc43)cc(=O)n2c1
  GIV-Gai inh: . | HCMV UL50-53 inh: -39

CCC(=O)Nc1ccc2nc3c(=O)n(C)c(=O)n(C)c3nc2c1
  GIV-Gai inh: 102 | HCMV UL50-53 inh: -152

CCN(CC)c1ccc(C=C2C(=O)c3ccccc3C2=O)c(OC)c1
  GIV-Gai inh: -18* | HCMV UL50-53 inh: .

CCN(CC)c1ccc2nc3c(nc2c1)C(=O)c1ccccc1C3=O
  GIV-Gai inh: 107 | HCMV UL50-53 inh: 64*

CCOc1cccc(N2C(=O)/C(=C\c3ccc(N(CC)CC)cc3OC)C(=O)NC2=S)c1
  GIV-Gai inh: 222 | HCMV UL50-53 inh: -14

CCN(CC)c1ccc2nc3c(=O)n(C)c(=O)n(C)c3nc2c1
  GIV-Gai inh: -26* | HCMV UL50-53 inh: -138

O=C1c2ccccc2-c2nc3ccccc3nc21
  GIV-Gai inh: 104 | HCMV UL50-53 inh: -135

Compound activity from PubChem.
